From publication PMC6458391, “Deep eutectic solvent for an expeditious sono-synthesis of novel series of bis-quinazolin-4-one derivatives as potential anti-cancer agents” (Royal Society Open Science, 2019)

These molecules were tested on MCF-7 (breast cancer) cell line. Details: from IC50 values.

Row | SMILES | potency against MCF-7 relative to sorafenib
1 | Cc1nc2ccc([N+](=O)[O-])cc2c(=O)n1-c1ccc(S(=O)(=O)c2ccc(-n3c(C)nc4ccc([N+](=O)[O-])cc4c3=O)cc2)cc1 [Compound 7e, 3,3′-(Sulfonylbis(4,1-phenylene))bis(2-methyl-6-nitroquinazolin-4(3H)-one)] | approximately thrice as potent as sorafenib

Same assay, conditions: read-out: IC50 MCF-7; MTT, 48 h drug treatment, MCF-7

Row | SMILES | IC50 [µM]
2 | Cc1nc2ccc(F)cc2c(=O)n1[C@H]1CC[C@H](n2c(C)nc3ccc(F)cc3c2=O)CC1 [Compound 3d, 3,3'-((1R,4R)-Cyclohexane-1,4-diyl)bis(6-fluoro-2-methylquinazolin-4(3H)-one)] | 7.11
3 | Cc1nc2ccc([N+](=O)[O-])cc2c(=O)n1Cc1ccc(Cn2c(C)nc3ccc([N+](=O)[O-])cc3c2=O)cc1 [Compound 4e, 3,3′-(1,4-Phenylenebis(methylene))bis(2-methyl-6-nitroquinazolin-4(3H)-one)] | 2.75
4 | Cc1nc2ccc(Cl)cc2c(=O)n1CCn1c(C)nc2ccc(Cl)cc2c1=O [Compound 5c, 3,3′-(Ethane-1,2-diyl)bis(6-chloro-2-methylquinazolin-4(3H)-one)] | 6.12
5 | Cc1nc2ccc(Cl)cc2c(=O)n1[C@H]1CC[C@H](n2c(C)nc3ccc(Cl)cc3c2=O)CC1 [Compound 3c, 3,3′-((1R,4R)-Cyclohexane-1,4-diyl)bis(6-chloro-2-methylquinazolin-4(3H)-one)] | 9.05
6 | Cc1ccc2nc(C)n([C@H]3CC[C@H](n4c(C)nc5ccc(C)cc5c4=O)CC3)c(=O)c2c1 [Compound 3b, 3,3′-((1R,4R)-Cyclohexane-1,4-diyl)bis(2,6-dimethylquinazolin-4(3H)-one)] | 12.7
7 | Cc1nc2ccccc2c(=O)n1-c1ccc(-n2c(C)nc3ccccc3c2=O)cc1 [Compound 6a, 3,3′-(1,4-Phenylene)bis(2-methylquinazolin-4(3H)-one)] | 6.98
8 | Cc1ccc2nc(C)n(Cc3ccc(Cn4c(C)nc5ccc(C)cc5c4=O)cc3)c(=O)c2c1 [Compound 4b, 3,3′-(1,4-Phenylenebis(methylene))bis(2,6-dimethylquinazolin-4(3H)-one)] | 6.73
9 | Cc1nc2ccccc2c(=O)n1CCn1c(C)nc2ccccc2c1=O [Compound 5a, 3,3′-(Ethane-1,2-diyl)bis(2-methylquinazolin-4(3H)-one)] | 9.79
10 | Cc1nc2ccc(F)cc2c(=O)n1-c1ccc(S(=O)(=O)c2ccc(-n3c(C)nc4ccc(F)cc4c3=O)cc2)cc1 [Compound 7d, 3,3′-(Sulfonylbis(4,1-phenylene))bis(6-fluoro-2-methylquinazolin-4(3H)-one)] | 1.46
11 | Cc1nc2ccc(Cl)cc2c(=O)n1-c1ccc(-n2c(C)nc3ccc(Cl)cc3c2=O)cc1 [Compound 6c, 3,3′-(1,4-Phenylene)bis(6-chloro-2-methylquinazolin-4(3H)-one)] | 5.53
12 | Cc1nc2ccccc2c(=O)n1[C@H]1CC[C@H](n2c(C)nc3ccccc3c2=O)CC1 [Compound 3a, 3,3′-((1R,4R)-Cyclohexane-1,4-diyl)bis(2-methylquinazolin-4(3H)-one)] | 9.78
13 | Cc1ccc2nc(C)n(-c3ccc(-n4c(C)nc5ccc(C)cc5c4=O)cc3)c(=O)c2c1 [Compound 6b, 3,3′-(1,4-Phenylene)bis(2,6-dimethylquinazolin-4(3H)-one)] | 7.48
14 | Cc1nc2ccccc2c(=O)n1-c1cccc(-n2c(C)nc3ccccc3c2=O)c1 [Compound 11, 3,3′-(1,3-Phenylene)bis(2-methylquinazolin-4(3H)-one)] | 5.42
15 | Cc1ccc2nc(C)n(CCn3c(C)nc4ccc(C)cc4c3=O)c(=O)c2c1 [Compound 5b, 3,3′-(Ethane-1,2-diyl)bis(2,6-dimethylquinazolin-4(3H)-one)] | 13.6
16 | Cc1nc2ccc([N+](=O)[O-])cc2c(=O)n1-c1ccc(-n2c(C)nc3ccc([N+](=O)[O-])cc3c2=O)cc1 [Compound 6e, 3,3′-(1,4-Phenylene)bis(2-methyl-6-nitroquinazolin-4(3H)-one)] | 2.73
17 | Cc1nc2ccccc2c(=O)n1Cc1ccc(Cn2c(C)nc3ccccc3c2=O)cc1 [Compound 4a, 3,3′-(1,4-Phenylenebis(methylene))bis(2-methylquinazolin-4(3H)-one)] | 5.38
18 | Cc1nc2ccc(F)cc2c(=O)n1Cc1ccc(Cn2c(C)nc3ccc(F)cc3c2=O)cc1 [Compound 4d, 3,3′-(1,4-Phenylenebis(methylene))bis(6-fluoro-2-methylquinazolin-4(3H)-one)] | 6.19
19 | Cc1nc2ccc([N+](=O)[O-])cc2c(=O)n1-c1ccc(S(=O)(=O)c2ccc(-n3c(C)nc4ccc([N+](=O)[O-])cc4c3=O)cc2)cc1 [Compound 7e, 3,3′-(Sulfonylbis(4,1-phenylene))bis(2-methyl-6-nitroquinazolin-4(3H)-one)] | 1.26
20 | Cc1nc2ccc(F)cc2c(=O)n1-c1ccc(-n2c(C)nc3ccc(F)cc3c2=O)cc1 [Compound 6d, 3,3′-(1,4-Phenylene)bis(6-fluoro-2-methylquinazolin-4(3H)-one)] | 5.7
21 | CNC(=O)c1cc(Oc2ccc(NC(=O)Nc3ccc(Cl)c(C(F)(F)F)c3)cc2)ccn1 [Sorafenib, sorafenib, reference compound] | 4.03
22 | Cc1ccc2nc(C)n(-c3ccc(S(=O)(=O)c4ccc(-n5c(C)nc6ccc(C)cc6c5=O)cc4)cc3)c(=O)c2c1 [Compound 7b, 3,3′-(Sulfonylbis(4,1-phenylene))bis(2,6-dimethylquinazolin-4(3H)-one)] | 5.78
23 | Cc1nc2ccc(Cl)cc2c(=O)n1Cc1ccc(Cn2c(C)nc3ccc(Cl)cc3c2=O)cc1 [Compound 4c, 3,3′-(1,4-Phenylenebis(methylene))bis(6-chloro-2-methylquinazolin-4(3H)-one)] | 4.65
24 | Cc1nc2ccc(Cl)cc2c(=O)n1-c1ccc(S(=O)(=O)c2ccc(-n3c(C)nc4ccc(Cl)cc4c3=O)cc2)cc1 [Compound 7c, 3,3′-(Sulfonylbis(4,1-phenylene))bis(6-chloro-2-methylquinazolin-4(3H)-one)] | 3.91
25 | Cc1nc2ccc(F)cc2c(=O)n1CCn1c(C)nc2ccc(F)cc2c1=O [Compound 5d, 3,3′-(Ethane-1,2-diyl)bis(6-fluoro-2-methylquinazolin-4(3H)-one)] | 5.39
26 | Cc1nc2ccccc2c(=O)n1-c1ccc(S(=O)(=O)c2ccc(-n3c(C)nc4ccccc4c3=O)cc2)cc1 [Compound 7a, 3,3′-(Sulfonylbis(4,1-phenylene))bis(2-methylquinazolin-4(3H)-one)] | 4.24
27 | Cc1nc2ccc([N+](=O)[O-])cc2c(=O)n1CCn1c(C)nc2ccc([N+](=O)[O-])cc2c1=O [Compound 5e, 3,3′-(Ethane-1,2-diyl)bis(2-methyl-6-nitroquinazolin-4(3H)-one)] | 5.21
28 | Cc1nc2ccc([N+](=O)[O-])cc2c(=O)n1[C@H]1CC[C@H](n2c(C)nc3ccc([N+](=O)[O-])cc3c2=O)CC1 [Compound 3e, 3,3′-((1R,4R)-Cyclohexane-1,4-diyl)bis(2-methyl-6-nitroquinazolin-4(3H)-one)] | 4.55
